## scFv variants of Ab-14 (light chain) against a SARS-CoV-2 spike peptide

From the AlphaSeq antibody data of Li et al. 2023 (doi:10.1038/s41467-023-39022-2), copy in the FLAb collection.

Target peptide (SARS-CoV-2 spike, HR2 region): PDVDLGDISGINAS

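The variants were designed computationally from a first round of random CDR variants and then made and measured. Their group label is 14L_GP_Gen (GP: Gaussian process model; Gen: genetic algorithm; a sequence that several methods proposed may carry one label only). Affinity was read by AlphaSeq, a pooled yeast mating assay with surface-displayed partners. The frequency of each diploid, read from paired DNA barcodes, reflects how well the two displayed proteins bind. A regression on co-assayed BCL2-family reference pairs converts the normalised counts of each replicate to an apparent Kd. Each pool was mated in six replicate cultures.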

The variants keep the heavy chain, the linker and the frameworks of Ab-14 (scFv order VH, three GGGGS repeats, VL).
VH: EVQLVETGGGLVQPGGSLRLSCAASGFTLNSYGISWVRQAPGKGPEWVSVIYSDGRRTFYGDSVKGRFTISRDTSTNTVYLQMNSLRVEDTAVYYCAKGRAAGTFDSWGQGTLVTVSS
VL: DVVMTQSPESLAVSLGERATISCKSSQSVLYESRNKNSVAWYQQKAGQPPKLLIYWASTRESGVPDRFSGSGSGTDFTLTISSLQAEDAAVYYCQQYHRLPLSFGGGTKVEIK

The parent's light chain CDRs are KSSQSVLYESRNKNSVA, WASTRES, QQYHRLPLS; each variant's own CDRs replace them letter for letter.
The read-out is the apparent dissociation constant on a log10 scale (nM): the lower, the stronger.
An entry "nd" has no value in the source: the pair was not observed among the diploids in that replicate. This suggests poor binding but is not conclusive.
Of ten entries with the parent sequence, four were seen in most replicates (averages 0.34 to 2.37), three in one and three in none, so single entries are noisy.
The range of this assay differs from that of the first round, and the authors advise against merging the two.
The authors averaged sequences with at least three values out of six and counted those with two or fewer as poor binders.
Background: pairings of all light chain designs with three empty control strains gave a value in 4% of cases (median 2.64, 5th percentile 1.59). Values in that range, when seen in few replicates, are hard to tell from nonspecific mating. The control count says in how many pairings with the empty strains this scFv gave a signal, with their mean in brackets.

CDR-L1	CDR-L2	CDR-L3	replicates, log10 nM	empty controls
KLAQSDLYESRNKNSVA	NASTRES	QQYHRLPLS	0.67 0.87 0.28 0.65 0.81 1.02	0/18
KLSQSGLYESRNKNSVA	EASTRES	QDYHRLPLS	0.04 0.21 0.15 0.39 0.48 0.31	2/18 (3.04)
KVSQAVLYESRNKNSVA	DASTRES	QQYHRLPLS	-0.21 -0.33 -0.37 -0.49 -0.31 -0.15	0/18
KVEQSVLYEDRNKNSVA	NASQRES	QQYHRLPLS	-0.33 -0.54 -0.51 -0.55 -0.42 -0.30	2/18 (3.19)
KLQQSVMYESRNKNSVA	NASTRMS	QQYHRLPLS	0.44 0.03 0.17 0.11 0.36 0.27	1/18 (2.25)
KIEQSWLYESRNKNSVA	NASTRES	QQYHRLPLS	0.14 0.05 -0.06 -0.06 -0.19 -0.06	1/18 (2.68)
KLQQSVLYESRNKNSVA	EASTRMS	QQYHRLPLS	0.25 -0.18 -0.06 -0.12 0.05 -0.05	0/18
KLSQSDLYESRNKNSVA	QASQRES	QQYHRLPLS	0.29 0.16 0.10 0.35 0.12 0.31	1/18 (1.87)
KLDQSVLYESRNKNSVA	GASQRES	QQYHRLPLS	-0.10 -0.31 -0.28 -0.23 -0.37 -0.13	0/18
KLSQSMLYESRNKNSVA	NASQREM	QQYHRLPLS	0.28 0.28 0.12 0.38 0.18 0.54	1/18 (3.90)
KLSQSWLYESRNSNSVA	NASTRES	QDYHRLPLS	0.27 0.01 -0.30 -0.08 -0.41 0.05	1/18 (2.69)
KLSQSELYESRNKNSVA	NASQREM	QQYHRLPLS	0.06 -0.45 -0.42 -0.26 0.16 0.19	0/18
KSSQSVLYESRNKNSVA	EASTRCS	QQYHRLPLS	-0.33 0.64 0.81 -0.14 0.36 0.20	0/18
KLSQSTLYESRMKNSVA	NASQRES	QQYHRLPLS	-0.10 -0.16 -0.05 -0.12 -0.28 -0.09	0/18
KLSQSNLYESRNKNNVA	NASTRES	QQYHRLPLS	0.23 0.27 -0.17 -0.16 -0.25 -0.04	0/18
KLEQSWPYESRNKNSVA	NASTRES	QQYHRLPLS	0.80 0.70 0.88 0.86 1.46 1.32	1/18 (1.95)
KLQQSQLYESRNKNSVA	NASTRES	QDYHRLPLS	0.04 -0.12 -0.14 -0.27 -0.22 -0.14	0/18
KLSQSVGYESRNKNSVA	EASTREQ	QQYHRLPLS	-0.17 -0.27 -0.04 -0.31 -0.32 -0.15	0/18
KMSQSVLYEERNKNSVA	NASQRES	QQYHRLPLS	-0.21 -0.33 -0.32 -0.49 -0.19 -0.30	1/18 (2.08)
KSSQSVDYESRNKNSVA	EASTRES	QQYHRLPLS	0.02 -0.10 -0.06 -0.05 0.11 0.08	2/18 (2.38)
KSSQSVPYESRNKNSVA	EASTRES	QQYHRLPLS	nd nd nd 0.67 -0.93 0.81	0/18
KVSQSVLYESRNKNSVA	NASTRED	QQYHRLPLS	0.06 0.47 0.15 -0.16 0.17 0.11	1/18 (3.00)
HLSQSVLYESRNKNSVA	DASTRCS	QQYHRLPLS	-0.38 -0.26 -0.51 -0.39 -0.41 -0.20	1/18 (2.80)
KLSQSHLYESRNKNSVA	NASTRCS	QQYHRLPLS	-0.09 -0.07 -0.03 -0.09 -0.13 0.02	3/18 (3.92)
KLSQLWLYESRNKNSVA	QASTRES	QQYHRLPLS	0.45 0.45 0.35 0.17 0.36 0.39	1/18 (2.61)
KFYQSVLYESRNKNSVA	EASTRES	QQYHRLPLS	-0.10 0.06 -0.25 0.01 -0.14 -0.06	2/18 (2.18)
KLSQSVDYEDRNKNSVA	NASQRES	QQYHRLPLS	0.05 0.12 -0.01 -0.17 0.15 0.18	1/18 (1.77)
KLSQSYLYESRNKNSVA	NASTRES	QSYHRLPLS	0.01 -0.06 0.08 -0.13 0.07 0.02	0/18
KVSQSDLYESRNKNSVA	NGSTRES	QQYHRLPLS	0.38 0.34 0.00 0.45 -0.11 0.25	0/18
KLSQSVLYESRNKNSVA	GASTRFS	QQYHRLPLS	-0.29 -0.20 -0.02 -0.09 -0.27 -0.06	1/18 (3.51)

2 of these entries, quoted again:

| CDR-L1 | CDR-L2 | CDR-L3 | replicates, log10 nM | empty controls |
|---|---|---|---|---|
| KLSQSYLYESRNKNSVA | NASTRES | QSYHRLPLS | 0.01 -0.06 0.08 -0.13 0.07 0.02 | 0/18 |
| KVSQSVLYESRNKNSVA | NASTRED | QQYHRLPLS | 0.06 0.47 0.15 -0.16 0.17 0.11 | 1/18 (3.00) |